Measured values: PMC12311865, “In Vitro Evaluation of the Potential Interactions of Zearalenone-14-sulfate and Zearalenone-14-glucuronide with Human Cytochrome P450 Enzymes, Organic Anion Transporting Polypeptides, and ATP-Binding Cassette Multidrug Transporters” (ACS Omega, 2025)

Sequences of proteins named here, by UniProt entry; tags and fusion partners are left off.
UniProt P05177, whole entry: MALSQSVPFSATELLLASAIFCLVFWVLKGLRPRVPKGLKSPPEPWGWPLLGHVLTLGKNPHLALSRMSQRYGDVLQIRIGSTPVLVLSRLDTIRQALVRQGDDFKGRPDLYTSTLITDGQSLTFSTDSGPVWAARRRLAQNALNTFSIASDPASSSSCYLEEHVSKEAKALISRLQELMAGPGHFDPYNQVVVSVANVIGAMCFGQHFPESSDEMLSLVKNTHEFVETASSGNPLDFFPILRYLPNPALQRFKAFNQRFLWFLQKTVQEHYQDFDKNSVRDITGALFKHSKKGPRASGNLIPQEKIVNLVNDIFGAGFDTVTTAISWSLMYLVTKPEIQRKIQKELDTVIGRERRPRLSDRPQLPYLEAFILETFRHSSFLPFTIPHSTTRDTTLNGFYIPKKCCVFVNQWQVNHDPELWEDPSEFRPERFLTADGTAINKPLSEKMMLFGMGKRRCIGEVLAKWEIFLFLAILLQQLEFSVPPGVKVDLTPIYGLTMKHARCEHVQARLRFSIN

Molecular target: CYP1A2 (Homo sapiens, UniProt P05177)

SMILES: O=c1cc(-c2ccccc2)oc2c1ccc1ccccc12 [α-naphthoflavone, reference compound]
- inhibition of CYP1A2 activity: more than 90%
